Reference: patent US7303915B2, “In vitro-differentiated retinal ganglion cells and method for producing same” (Wisconsin Alumni Research Foundation, priority 2005, dated 2007)

System: ERK2 T185/Y187
Test: Kinetworks KPSS 2.1 phosphorylation screen, ERK2 T185/Y187
Type: cell-based, rat
Settings: 1 μM for 5 minutes

## CN[C@@H]1C[C@H]2O[C@@](C)([C@@H]1OC)n1c3ccccc3c3c4c(c5c6ccccc6n2c5c31)C(=O)NC4 [staurosporine]
  decrease in phosphorylation of ERK2 T185/Y187 vs control: 59%
